Measured values: patent publication US10988455B2, “1,2,4-triazine-4-amine derivatives” (Heptares Therapeutics Limited, priority 2010, dated 2021)
Read-outs that look alike come from different tables or passages of the source.

Sequences of proteins named here, by UniProt entry; tags and fusion partners are left off.
UniProt P30542, whole entry: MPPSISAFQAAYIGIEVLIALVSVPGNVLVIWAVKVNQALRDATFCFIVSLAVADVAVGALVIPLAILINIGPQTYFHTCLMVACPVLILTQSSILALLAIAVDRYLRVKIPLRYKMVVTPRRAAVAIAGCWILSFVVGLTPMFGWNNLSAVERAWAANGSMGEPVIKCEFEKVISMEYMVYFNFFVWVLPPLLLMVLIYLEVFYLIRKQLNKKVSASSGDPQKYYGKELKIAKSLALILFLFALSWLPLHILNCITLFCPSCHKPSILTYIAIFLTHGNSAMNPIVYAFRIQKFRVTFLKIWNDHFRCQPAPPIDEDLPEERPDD

Legend:
[1] = target: human adenosine A1 receptor (Homo sapiens (Human), UniProt P30542); experiment: CHO-hA1 [3H]DPCPX binding assay (Test A)
[2] = target: human adenosine A2a receptor (Homo sapiens (Human), UniProt P29274); experiment: HEK293-hA2a [3H]-ZM241385 binding assay (Test A)

SMILES | pKi A1 [1] | pKi A2a [2] | pKi A2a ([2]; human A2a receptor, HEK293 membranes, 1 nM [3H]ZM241385, 25° C., 1 h)
Nc1nnc(-c2cc(Cl)cc(Cl)c2)c(-c2ccccc2)n1 [1(xiii), 6-(3,5-Dichlorophenyl)-5-phenyl-1,2,4-triazin-3-amine] | 7.36 | 8.40 | –
Cc1cc(-c2nnc(N)nc2-c2ccccc2)cc(C(F)(F)F)n1 [Example 1(ccix), 6-[2-methyl-6-(trifluoromethyl)pyridin-4-yl]-5-phenyl-1,2,4-triazin-3-amine] | – | – | 8.59
Nc1nnc(-c2cccc(Cl)c2)c(-c2ccccc2)n1 [Example 1(vi), 6-(3-Chlorophenyl)-5-phenyl-1,2,4-triazin-3-amine] | 7.25 | 7.29 | –
